The values that follow come from ChEMBL document CHEMBL4020833, “A Systematic Exploration of Macrocyclization in Apelin-13: Impact on Binding, Signaling, Stability, and Cardiovascular Effects” (J Med Chem, 2018).

In the assay the target is T1, Apelin receptor (Homo sapiens, UniProt P35414).
T1 sequence (P35414 whole entry): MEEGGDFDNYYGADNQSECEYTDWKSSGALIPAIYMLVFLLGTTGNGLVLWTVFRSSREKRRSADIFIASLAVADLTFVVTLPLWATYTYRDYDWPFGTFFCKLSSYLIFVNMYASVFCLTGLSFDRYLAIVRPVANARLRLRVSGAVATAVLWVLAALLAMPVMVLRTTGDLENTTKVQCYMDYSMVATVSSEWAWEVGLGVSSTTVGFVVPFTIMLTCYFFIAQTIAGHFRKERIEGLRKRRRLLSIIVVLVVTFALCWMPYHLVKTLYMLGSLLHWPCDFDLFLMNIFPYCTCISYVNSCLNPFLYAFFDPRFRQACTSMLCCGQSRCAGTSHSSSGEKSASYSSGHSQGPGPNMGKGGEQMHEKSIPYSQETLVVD
The assay can be described thus: Displacement of [125I]-[Nle75, Tyr77] Pyr1-apelin-13 from YFP-tagged human APJ receptor expressed in HEK293 cell membranes after 1 hr by gamma-counting method. (In general: Loss of bound radioactivity is the signal in a displacement assay; it reports binding, not function.)

In the case of `CCCC[C@H](NC(=O)[C@@H]1CCCN1C(=O)CNC(=O)[C@H](CCCCN)NC(=O)[C@@H]1C/C=C\C[C@H](NC(=O)[C@H](CCCNC(=N)N)NC(=O)[C@@H]2CCC(=O)N2)C(=O)N[C@@H](CCCNC(=N)N)C(=O)N[C@@H](CC(C)C)C(=O)N[C@@H](CO)C(=O)N1)C(=O)N1CCC[C@H]1C(=O)N[C@@H](Cc1ccccc1)C(=O)O`, the inhibition constant Ki (commonly a dissociation constant, usually derived from enzyme kinetics or from competition with a known ligand) was determined as 3 nM.
